Measured values from US20020068038A1, “Foaming tablet for cleaning the oral cavity and preparation method thereof” (priority 1998, published 2002).
Like-named read-outs stand apart in the source and are kept apart here.

Tested on: Bacteroides melaninogenicus ssp intermedius
[1] = Bacteroides melaninogenicus ssp intermedius, MH medium, 96 hours anaerobic cultivation at 37° C., less than 10 colonies on LRBB agar

Row | SMILES | disinfection concentration [1] | disinfection concentration
1 | [Cl-].[Na+] [NaCl, sodium chloride] | 650 | –
2 | O=S(=O)([O-])[O-].[Mg+2] [MgSO4, magnesium sulfate] | 200 | –
3 | O=C([O-])O.[Na+] [NaHCO3, sodium bicarbonate] | – | 100
4 | O=C([O-])O.[K+] [KHCO3, potassium bicarbonate] | – | 50
